Only a part is listed here, and it is no random draw. The source made the active and inactive calls.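 Rule for the calls: active = mean replicate inhibition of at least 30%, or all replicates individually reaching that 30% level; inactive = mean below 30% and not every replicate reaching it.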

Protein sequences, listed by entry. Tags and fused reporters are not part of them.
UniProt Q9NZ08, whole entry: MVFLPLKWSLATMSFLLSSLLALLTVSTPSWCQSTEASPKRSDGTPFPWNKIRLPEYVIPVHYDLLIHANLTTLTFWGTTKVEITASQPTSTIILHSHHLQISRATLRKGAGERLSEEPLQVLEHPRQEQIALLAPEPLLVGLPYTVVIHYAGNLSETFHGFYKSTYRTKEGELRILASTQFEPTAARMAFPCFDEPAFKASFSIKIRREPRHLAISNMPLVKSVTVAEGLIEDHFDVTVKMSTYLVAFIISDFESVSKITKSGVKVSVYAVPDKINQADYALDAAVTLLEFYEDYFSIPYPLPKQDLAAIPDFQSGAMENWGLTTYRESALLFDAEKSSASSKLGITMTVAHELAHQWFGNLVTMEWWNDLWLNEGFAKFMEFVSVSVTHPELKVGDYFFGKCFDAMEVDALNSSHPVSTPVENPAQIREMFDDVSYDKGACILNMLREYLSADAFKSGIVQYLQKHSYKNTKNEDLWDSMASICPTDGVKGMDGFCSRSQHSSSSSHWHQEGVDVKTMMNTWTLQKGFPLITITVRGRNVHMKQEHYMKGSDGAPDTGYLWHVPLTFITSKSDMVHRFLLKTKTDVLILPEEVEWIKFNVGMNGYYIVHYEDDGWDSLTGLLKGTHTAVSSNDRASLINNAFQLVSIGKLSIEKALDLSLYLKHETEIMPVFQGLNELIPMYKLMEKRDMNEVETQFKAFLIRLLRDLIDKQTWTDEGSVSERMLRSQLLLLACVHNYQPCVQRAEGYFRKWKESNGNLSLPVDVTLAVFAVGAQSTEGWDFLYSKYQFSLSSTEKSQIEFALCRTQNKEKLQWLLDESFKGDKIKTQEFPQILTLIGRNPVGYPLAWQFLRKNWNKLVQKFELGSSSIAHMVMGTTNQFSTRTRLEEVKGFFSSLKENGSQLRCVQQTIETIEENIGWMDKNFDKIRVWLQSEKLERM

Inhibition data for 60 molecules are collected here from PubChem BioAssay AID652197 (Broad Institute, 2013).

The target of this experiment is Endoplasmic reticulum aminopeptidase 1 (Homo sapiens) (UniProt Q9NZ08). As to the kind of experiment: human ERAP1 aminopeptidase inhibitors, primary screen, biochemical, single point, plate reader (AID 652197).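 Note: 0% = neutral control wells and 100% = L-leucinethiol positive control wells.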 As to conditions: recombinant ERAP1, Leu-AMC fluorescence, 60 min; at 10.7 µM; active compounds read high.
As to `COc1ccc(C(c2nnnn2C2CCCCC2)N2CCC(n3c(=O)[nH]c4ccccc43)CC2)cc1` (stereo not given), the inhibition was inactive: 1.66%.
As for `Cc1ccccc1NC1(C#N)CCN(Cc2ccccc2)CC1`, the figure is inactive: 1.7%; as for `Cn1c(=O)[nH]cc(N(CCCl)CCCl)c1=O`, inactive: 2.26%.
In the case of `CN(C)c1ccc(C(=O)NCC2(N3CCCCC3)CCCCC2)cc1` it was inactive: -0.435%; in that of `O=C(NCC1(N2CCCCC2)CCCCC1)c1ccco1`, inactive: -2.93%; in that of `CCC(c1nnnn1C1CCCCC1)N1CCC(n2c(=O)[nH]c3ccccc32)CC1` (stereo not given), inactive: -3.4%.
In the case of `CC(=O)N(c1ccccc1)C1CCNCC1` it was inactive: -4.07%; in that of `COc1cccc(C(c2nnnn2C2CCCCC2)N2CCC(n3c(=O)[nH]c4ccccc43)CC2)c1OC` (stereo not given), inactive: -0.92%.
Turning to `COc1cc(OC)cc(C(=O)NCC2(N3CCCCC3)CCCCC2)c1`, the inhibition is inactive: 0.996%.
As for `Fc1ccccc1NC1CCN(Cc2ccccc2)CC1`, the figure is inactive: -4.71%; as for `Cc1ccc(C(=O)NCC2(N3CCCCC3)CCCCC2)o1`, inactive: -4.24%; as for `Cc1ccc(NC2(C#N)CCN(Cc3ccccc3)CC2)cc1`, inactive: -0.02%.
In the case of `COc1cc(OC)cc(C(=O)NCC2(N3CCOCC3)CCCCC2)c1` it was inactive: -1.8%; in that of `COc1cccc(C(c2nnnn2C2CCCC2)N2CCC(n3c(=O)[nH]c4ccccc43)CC2)c1OC` (stereo not given), inactive: -3.05%.
In the case of `COc1cccc(C(=O)N(c2cc(C)cc(C)c2)C2CCN(C(=O)OC(C)(C)C)CC2)c1` it was inactive: -1.48%.
Regarding `CN1CCC(Nc2ccc(Cl)cc2)CC1`, the inhibition is inactive: -3.09%.
In the case of `CN1CCC(Nc2ccc(F)c(Cl)c2)CC1` it was inactive: -0.102%; in that of `O=C(O)C1(Nc2ccccc2)CCN(Cc2ccccc2)CC1`, inactive: -10.3%; in that of `CC(C)(C)OC(=O)N1CCC(Nc2ccccc2)CC1`, inactive: 1.78%.
As for `CCCOc1ccc(C(=O)NCC2(N(C)C)CCCCC2)cc1`, the figure is inactive: -1.31%; as for `COc1cccc(C(c2nnnn2C(C)(C)C)N2CCC(n3c(=O)[nH]c4ccccc43)CC2)c1OC` (stereo not given), inactive: -1.69%.
As to `CCOC(=O)N1CCC(Nc2ccc(C)cc2)CC1`, the inhibition is inactive: -0.578%.
Take `O=c1[nH]c2ccccc2n1C1CCN(C(c2cccs2)c2nnnn2C2CCCC2)CC1` (stereo not given): the inhibition was inactive: -3.26%.
As for `CCCCn1nnnc1C(c1cccc(OC)c1OC)N1CCC(n2c(=O)[nH]c3ccccc32)CC1` (stereo not given), the figure is inactive: 3.49%; as for `COc1cc(C(=O)NCC2(N3CCOCC3)CCCCC2)cc(OC)c1C`, inactive: 4.45%.
As for `CCCCn1nnnc1C(c1ccccc1)N1CCC(n2c(=O)[nH]c3ccccc32)CC1` (stereo not given), the figure is inactive: -1.36%; as for `O=C(NCC1(N2CCOCC2)CCCCC1)c1cc(Br)ccc1Cl`, inactive: -3.21%.
As for `O=c1[nH]c2ccccc2n1C1CCN(C(c2cccs2)c2nnnn2C2CCCCC2)CC1` (stereo not given), the figure is inactive: 2.76%; as for `O=c1[nH]c2ccccc2n1C1CCN(C(c2ccnc3ccccc23)c2nnnn2C2CCCC2)CC1` (stereo not given), inactive: -1.74%.
As to `COc1ccc(C(=O)NCC2(N3CCOCC3)CCCCC2)cc1OC`, the inhibition is inactive: 0.26%.
As for `CN(C)C1(CNC(=O)c2cccc(C#N)c2)CCCCC1`, the figure is inactive: 0.829%; as for `Cc1cc(N(CCCl)CCCl)ccc1C=O`, inactive: -6.61%; as for `O=c1[nH]c2ccccc2n1C1CCN(C(c2ccccc2)c2nnnn2C2CCCC2)CC1` (stereo not given), inactive: -1.49%.
As for `CCCN1CCC(Nc2cc(OC)cc(OC)c2)CC1`, the figure is inactive: 2.28%; as for `C/C(N)=N\P(=O)(Oc1ccccc1)Oc1ccccc1`, inactive: -0.368%; as for `CC(C)(C)OC(=O)N1CCC(N(C(=O)c2ccccc2)c2ccc(Cl)cc2)CC1`, inactive: -0.041%.
As for `O=C(NCC1(N2CCCCC2)CCCCC1)c1cccc(C(F)(F)F)c1`, the figure is inactive: -3.83%; as for `COc1cc(C(=O)NCC2(N3CCCCC3)CCCCC2)ccc1OC(F)F`, inactive: -0.919%.
Consider `CN1CCN(CCOC(=O)C(O)(c2ccccc2)c2ccccc2)CC1`, for which the inhibition was inactive: 1.4%.
As for `CC(C)c1ccc(C(=O)NCC2(N3CCOCC3)CCCCC2)cc1`, the figure is inactive: -3.67%; as for `COc1ccc(NC2CCN(C(=O)OC(C)(C)C)CC2)cc1`, inactive: -0.396%.
On to `O=C(NCC1(N2CCCCC2)CCCCC1)c1ccc(OC(F)F)cc1`, for which the inhibition was inactive: -4.02%.
As for `O=c1[nH]c2ccccc2n1C1CCN(C(c2ccccc2OC(F)(F)F)c2nnnn2C2CCCC2)CC1` (stereo not given), the figure is inactive: 0.722%.
On to `CCN1CCC(Nc2ccc(Cl)cc2)CC1`, for which the inhibition is inactive: 2.51%.
As for `O=C(NCC1(N2CCCCC2)CCCCC1)c1cccc([N+](=O)[O-])c1`, the inhibition is inactive: -2.92%.
In the case of `CSc1ccc(C(=O)NCC2(N3CCOCC3)CCCCC2)cc1` it was inactive: -2.14%.
In the case of `O=C(NCC1(N2CCCCC2)CCCCC1)c1cncc(Br)c1` it was inactive: -1.71%; in that of `CN1CCC(Nc2cccc(F)c2)CC1`, inactive: 4.19%.
In the case of `COc1ccc(C(c2nnnn2C2CCCC2)N2CCC(n3c(=O)[nH]c4ccccc43)CC2)cc1` (stereo not given) it was inactive: -3.12%.
Consider `CCCOc1ccc(C(=O)NCC2(N(C)C)CCCCC2)cc1OC`, for which the inhibition is inactive: -0.084%.
In the case of `Cc1ccc(C(=O)NCC2(N(C)C)CCCCC2)o1` it was inactive: 0.028%; in that of `CC(C)c1ccc(NC2CCN(C(=O)OC(C)(C)C)CC2)cc1`, inactive: 2.38%.
In the case of `CN(C)c1cccc(C(=O)NCC2(N3CCCCC3)CCCCC2)c1` it was inactive: 1.12%; in that of `COc1ccc(CN(CCCl)CCCl)cc1Cl`, inactive: -0.387%; in that of `O=C(NCC1(N2CCOCC2)CCCCC1)c1cc(F)c(F)cc1Cl`, inactive: 0.457%.
As for `CCC(c1nnnn1C(C)(C)C)N1CCC(n2c(=O)[nH]c3ccccc32)CC1` (stereo not given), the figure is inactive: -3.48%; as for `COc1cc(OC)c(C(=O)NCC2(N(C)C)CCCCC2)cc1OC`, inactive: 1.09%.
For the molecule `CCCCn1nnnc1C(c1ccnc2ccccc12)N1CCC(n2c(=O)[nH]c3ccccc32)CC1` (stereo not given), the inhibition was inactive: -2.89%.
As for `Cc1cc(C)cc(N(C(=O)c2ccccc2)C2CCN(C(=O)OC(C)(C)C)CC2)c1`, the figure is inactive: 0.177%; as for `O=c1[nH]c2ccccc2n1C1CCN(C(c2ccccc2OC(F)(F)F)c2nnnn2C2CCCCC2)CC1` (stereo not given), inactive: -1.24%.
